Measured values reported in PMC9866366 (Pharmaceutics, 2023).

How the values were obtained:
BxPC-3 cells = conditions: 24 h exposure, medium with or without 5 mM glucose, up to 1 µM
Method: (§1) Cells were seeded at a density of 25,000 cells/well (BxPC-3) and 30,000 cells/well (PANC-1) in Nunc MicroWell 96-Well Black Optical-Bottom Plates with Polymer Base (total volume: 100 µL). Cells were first incubated overnight at 37 °C, 5% CO2 to permit adherence, after which the medium in each well was aspirated, briefly washed once with 100 µL/well of PBS (pH 7.4) and replaced with 100 µL of either RPMI 1640 (BxPC-3, #11879020) or DMEM (PANC-1, #11966025) supplemented with or without 5 mM glucose to create the ‘normal glucose’ and ‘low glucose’ media, respectively. This 5 mM glucose concentration was selected to reflect the physiological concentration of glucose in plasma. […] Endpoint fluorescence was quantified as described above.
(§2) Blank correction (wells containing medium only) was first performed on the raw fluorescence–concentration data from the plate reader. Cell viability was then calculated as a percentage by normalizing to the fluorescence of the wells containing the lowest drug concentration (50.8 pM for BxPC-3, 457 pM for PANC-1). The resulting data from three independent experiments (each in technical duplicate) was then plotted on GraphPad Prism 9 and analyzed using the built-in ‘[Inhibitor] vs. response—Variable slope (four parameters)’ equation.

PANC-1 cells = conditions: 24 h exposure, medium with or without 5 mM glucose, up to 9 µM
Method: as §1, §2

trichoderin A [(3)]
Cytotoxicity against BxPC-3 under 'low glucose' vs 'normal glucose' (in words) (BxPC-3 cells): selective toxicity under the ‘low glucose’ condition | Cytotoxicity against PANC-1 under 'low glucose' vs 'normal glucose' (in words) (PANC-1 cells): selective toxicity under the ‘low glucose’ condition
